From patent publication US20150031655A1, “COMBINATION OF LIVER X RECEPTOR MODULATOR AND ESTROGEN RECEPTOR MODULATOR FOR THE TREATMENT OF AGE-RELATED DISEASES” (UNIVERSITY OF NORTH DAKOTA, priority 2011, published 2015)

The chains behind the UniProt entries cited, without tags or fusion partners.
UniProt Q92731, whole entry: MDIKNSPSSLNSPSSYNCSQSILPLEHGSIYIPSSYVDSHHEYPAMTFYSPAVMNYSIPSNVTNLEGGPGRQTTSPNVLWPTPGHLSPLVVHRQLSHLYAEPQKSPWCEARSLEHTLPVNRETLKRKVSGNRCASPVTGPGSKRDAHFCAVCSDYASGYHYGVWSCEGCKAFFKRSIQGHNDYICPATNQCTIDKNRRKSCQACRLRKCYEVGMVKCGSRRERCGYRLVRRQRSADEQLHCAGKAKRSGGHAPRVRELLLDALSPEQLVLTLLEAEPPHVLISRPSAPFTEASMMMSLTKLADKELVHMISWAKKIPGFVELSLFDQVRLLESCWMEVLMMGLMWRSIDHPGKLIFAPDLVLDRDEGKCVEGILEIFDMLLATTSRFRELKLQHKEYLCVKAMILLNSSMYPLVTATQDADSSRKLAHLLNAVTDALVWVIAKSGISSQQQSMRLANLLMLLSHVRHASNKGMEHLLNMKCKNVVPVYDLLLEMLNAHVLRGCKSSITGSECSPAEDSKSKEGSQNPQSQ

Biological target: T1, ERβ (Homo sapiens, UniProt Q92731)
T1 construct: endogenous in cells; host or cells: SH-SY5Y human neuroblastoma cells
Experiment: ChIP, ERβ binding to the ERE half site in the TH promoter
Type: cell-based
Details: SH-SY5Y
Protocol: ChIP analysis was performed to evaluate the extent of ERα/ERβ and LXRα/LXRβ binding to the DNA elements in the TH promoter and α-synuclein promoter regions respectively using “SimpleChIP™ Enzymatic Chromatic IP kit” from Cell Signaling (Boston, Mass.).
Briefly, cells from each treatment group (3×10^6 cells) were washed with PBS, trypsinized, centrifuged at 5000 g. The pellet containing the cells was further washed with PBS and cross-linked using 37% formaldehyde for 15 min followed by the addition of glycine solution to cease the cross-linking reaction.
The cells were washed with 4× volumes of 1×PBS and centrifuged at ˜220 g for 5 min. […]
The crude DNA extract was eluted and then washed several times with wash buffer containing ethanol (provided with the kit) followed by purification with the use of DNA spin columns provided by the manufacturer. […] The DNA fragment size was determined by electrophoresis on a 1.2% agarose FlashGel^R system (Lonza, Rockland, Me.).
The relative abundance of the ERα or ERβ antibody precipitated chromatin containing the ERE in the TH promoter region and LXRα or LXRβ antibody precipitated chromatin containing the LXRE in the α-synuclein promoter region was determined by qPCR using an iQ SYBR Green Supermix kit following the manufacturer's instructions (BioRad, Hercules, Calif.) and sequence specific primers (See Table 1 above). […]

ERβ binding to the ERE on the TH promoter (concomitant to 27-OHC treatment): increases | increase in ERβ binding to the ERE half-site on the TH promoter (treatment alone vs control): 4.5 fold
SMILES: C[C@]12CC[C@@H]3c4ccc(O)cc4CC[C@H]3[C@@H]1CC[C@@H]2O [estradiol, 17β-estradiol]
